Literature values in US10117862B2.

Experiments:
[1] = long-term storage
[2] = metabolized in a liver into active and nonactive metabolites

Structure (SMILES) | Stability of aqueous solution [1] | Share of metabolites discharged from a kidney [2] [%]
CCC(=O)N(c1ccccc1)C1(C(=O)OC)CCN(CCC(=O)OC)CC1 | unstable | –
CCC(=O)N(c1ccccc1)C1CCN(CCc2ccccc2)CC1 | – | 10

Some compounds may have been tested in ways that are not shown here.
